Measurements published in PubChem BioAssay AID652104 (National Center for Advancing Translational Sciences (NCATS), 2013).
This is a selection; strong and weak results do not stand in their true shares. Records with an inconclusive call do not appear. Calls of active or inactive are those of the source. The call rests on the fitted dose curve; in most records, active means well fitted activation curve with a large enough effect; inconclusive means small, poorly fitted or top-dose-only effect, or another doubt; inactive means no such curve, though single readings can be large or run the other way.

assay: qHTS of TDP-43 Inhibitors; conditions: TDP-43 expressing yeast growth rescue, BacTiter-Glo, 24 h; series mostly up to 46.1 µM; growth rescue (activation): at the top concentration; further: nearly all actives have a fitted effect of over 50% in size; on growth rescue (activation): % of control where 0% means no effect
Potency means the concentration at half of the fitted maximal effect.

Row | Compound | growth rescue (activation) | Potency
1 | O=[N+]([O-])c1ccc2c(c1)C=Nc1ccccc1O2 | inactive: -19.7% [at 0.397 µM] | –
2 | CC(C)(C)c1ccc(OP(C)(=O)Nc2ccc(SC(F)(F)F)cc2)cc1 (stereo unspecified) | inactive: -4.16% | –
3 | Cc1cccc(C)c1OP(C)(N)=O (stereo unspecified) | inactive: -3.61% | –
4 | O=[N+]([O-])c1cc([N+](=O)[O-])c(Nc2cccnc2)c([N+](=O)[O-])c1 | inactive: 36.1% | –
5 | Cc1cc(C)cc(OP(C)(N)=O)c1 (stereo unspecified) | inactive: 0% | –
6 | COc1ccccc1OP(C)(=O)Nc1cc(Cl)ccc1C (stereo unspecified) | inactive: -25.5% | –
7 | COc1ccc(OP(C)(=O)Nc2cccc(F)c2)cc1 (stereo unspecified) | inactive: -13% | –
8 | COc1ccccc1OP(C)(=O)Nc1ccc(C)cc1 (stereo unspecified) | inactive: 4.29% | –
9 | Cc1ccc(NP(C)(=O)Oc2ccccc2)c(C)c1 (stereo unspecified) | inactive: 8.3% | –
10 | CCOC(=O)c1ccc(NP(C)(=O)Oc2ccccc2)cc1 (stereo unspecified) | inactive: 25.4% | –
11 | CCN(CC)CCCOC(=O)C(O)(c1ccccc1)c1ccccc1 | inactive: 24.2% | –
12 | COc1ccccc1-c1ccccn1.O=[N+]([O-])c1cc([N+](=O)[O-])c(O)c([N+](=O)[O-])c1 | inactive: 17.1% | –
13 | CP(=O)(NC(=O)Nc1ccccc1)Oc1ccccc1 (stereo unspecified) | inactive: -9.75% | –
14 | CCc1ccc(OP(C)(=O)N2CCN(c3ccc([N+](=O)[O-])cc3)CC2)cc1 (stereo unspecified) | inactive: 10.4% | –
15 | CP(=O)(Nc1ccc(SC(F)(F)F)cc1)Oc1ccc(Cl)cc1 (stereo unspecified) | – | active: 22.4 µM
16 | Cc1cccc(C)c1OP(C)(=O)Nc1ccc(SC(F)(F)F)cc1 (stereo unspecified) | inactive: 0.965% | –
17 | CP(=O)(Oc1ccccc1)OC(c1ccccc1)C(F)(F)F (stereo unspecified) | inactive: 15.6% | –
18 | CP(=O)(Nc1ccccn1)Oc1ccc(Cl)cc1 (stereo unspecified) | inactive: -8.15% | –
19 | O=[N+]([O-])c1cc([N+](=O)[O-])c(O)c([N+](=O)[O-])c1.c1ccc(Oc2ccncc2)cc1 | inactive: -8.48% | –
20 | CCOC(=O)c1ccc(NP(C)(=O)Oc2ccc(OC)cc2)cc1 (stereo unspecified) | inactive: 17.6% | –
21 | CCOP(C)(=S)SCC(=O)NC(C)C(=O)O (stereo unspecified) | inactive: 10.4% | –
22 | CP(=O)(Nc1ccccc1Br)Oc1ccccc1 (stereo unspecified) | inactive: 24.9% | –

Row | Compound | growth rescue (activation) | Potency
23 | COc1ccccc1OP(C)(=O)Nc1ccccc1 (stereo unspecified) | inactive: 8.98% | –
24 | CP(=S)(Nn1cnnc1)Oc1ccccc1 (stereo unspecified) | inactive: -6.09% | –
25 | CC1=C2N=C(C=C3N=C(C(C)=C4[N-][C@@](C)([C@@H]5N=C1[C@](C)(CCC(=O)NC[C@@H](C)OP(=O)([O-])O[C@H]1[C@@H](O)[C@@H](n6cnc7cc(C)c(C)cc76)O[C@@H]1CO)[C@H]5CC(N)=O)[C@@](C)(CC(N)=O)[C@@H]4CCC(N)=O)[C@@](C)(CC(N)=O)[C@@H]3CCC(N)=O)C(C)(C)[C@@H]2CCC(N)=O.[C-]#N.[Co+3] | inactive: -2.31% | –
26 | O=[N+]([O-])c1cc([N+](=O)[O-])c(Nc2nnnn2CCO)c([N+](=O)[O-])c1 | inactive: -13.7% | –
27 | COc1ccc(-c2ccccn2)cc1.O=[N+]([O-])c1cc([N+](=O)[O-])c(O)c([N+](=O)[O-])c1 | inactive: 24.7% | –
28 | CCCOc1ccc(NP(C)(=O)Oc2ccc(Cl)cc2)cc1 (stereo unspecified) | inactive: 16% | –
29 | CP(=O)(Nc1ccc(SC(F)(F)F)cc1)Oc1ccccc1 (stereo unspecified) | inactive: 0% | –
30 | CN1CCCCC1COC(=O)C1(O)c2ccccc2CCc2ccccc21 (stereo unspecified) | inactive: -25.6% | –
31 | COc1ccccc1OP(C)(=O)Nc1c(C)cccc1C (stereo unspecified) | inactive: -3.69% | –
32 | CN(Cc1cccnc1)C(=O)COc1ccc(Cl)c(Cl)c1.O=[N+]([O-])c1cc([N+](=O)[O-])c(O)c([N+](=O)[O-])c1 | inactive: 22.9% | –
33 | O=[N+]([O-])c1cc([N+](=O)[O-])c(-n2nnc3ccccc32)c([N+](=O)[O-])c1 | inactive: -16.4% [at 9.22 µM] | –
34 | Cc1nc2ccc3ccccc3c2s1.O=[N+]([O-])c1cc([N+](=O)[O-])c(O)c([N+](=O)[O-])c1 | inactive: 4.49% | –
35 | O=[N+]([O-])c1cc([N+](=O)[O-])c(-c2cnn(-c3ccccc3)c2)c([N+](=O)[O-])c1 | inactive: -45.1% | –
36 | CCOC(=O)c1ccc(NP(C)(=O)Oc2cc(C)cc(C)c2)cc1 (stereo unspecified) | inactive: 0.679% | –
37 | Cc1cc(C)cc(OP(C)(=O)Nc2ccc(C)cc2C)c1 (stereo unspecified) | inactive: -12.4% | –
38 | COc1ccccc1OP(C)(=O)Nc1cccc(Br)c1 (stereo unspecified) | inactive: -2.66% | –
39 | Cc1ccc(C)c(NP(C)(=O)Oc2ccccc2)c1 (stereo unspecified) | inactive: 3.7% | –
40 | Cc1cc(C)cc(OP(C)(=O)Nc2ccccn2)c1 (stereo unspecified) | inactive: -1.36% | –
41 | CP(=O)(Nc1cccc(Br)c1)Oc1ccccc1 (stereo unspecified) | inactive: -15.4% [at 0.397 µM] | –
42 | CC1=NCCc2c1[nH]c1ccccc21.O=[N+]([O-])c1cc([N+](=O)[O-])c(O)c([N+](=O)[O-])c1 | inactive: -14.5% | –
43 | CCOC(=O)c1ccc(NP(C)(=O)Oc2ccc(F)cc2)cc1 (stereo unspecified) | inactive: 16.4% | –
44 | CP(=O)(Nc1ccccc1)Oc1ccc(F)cc1 (stereo unspecified) | inactive: -10.7% | –

Row | Compound | growth rescue (activation) | Potency
45 | CCCCCOc1ccc(NP(C)(=O)Oc2ccc(Cl)cc2Cl)cc1 (stereo unspecified) | inactive: -26% [at 1.82 µM] | –
46 | CCN(CC)CCCOC(=O)C(O)(c1ccccc1)C1CCCCC1 (stereo unspecified) | inactive: 6.46% | –
47 | CP(=O)(Nc1ccccc1F)Oc1ccccc1 (stereo unspecified) | inactive: -26.8% | –
48 | O=C(OCCN1CCN(CCOCc2ccccc2)CC1)C(O)(c1ccccc1)c1ccccc1 | inactive: 12.5% | –
49 | CCOP(C)(=S)SCC(=O)NC(C)(CC)C(=O)O (stereo unspecified) | inactive: 1.78% | –
50 | CP(=O)(Nc1ccc(SC(F)(F)F)cc1)Oc1ccc(F)cc1 (stereo unspecified) | inactive: 10.4% | –
51 | Cc1ccccc1NP(C)(=O)Nc1ccccc1C | inactive: 0.424% | –
52 | O=[N+]([O-])c1cc([N+](=O)[O-])c(C(F)(F)F)c([N+](=O)[O-])c1O | inactive: 13.4% | –
53 | CP(=O)(Nc1ccc2c(c1)OCCO2)Oc1ccccc1 (stereo unspecified) | inactive: -0.0684% | –
54 | CN(C)CCOC(=O)C(O)(c1ccccc1)C1CCCCC1 (stereo unspecified) | inactive: -1.07% | –
55 | COc1ccc(NP(C)(=O)Oc2ccccc2OC)cc1 (stereo unspecified) | inactive: 24.5% | –
56 | COc1ccc(OP(C)(=O)Nc2cccc(Br)c2)cc1 (stereo unspecified) | inactive: 16.6% | –
57 | Cc1c(C(c2ccc3c(c2)OCO3)c2c(C)n(C)n(-c3ccccc3)c2=O)c(=O)n(-c2ccccc2)n1C.O=[N+]([O-])c1cc([N+](=O)[O-])c(O)c([N+](=O)[O-])c1 | inactive: -7.35% | –
58 | O=[N+]([O-])c1ccc(OP2(=O)COCCO2)cc1 (stereo unspecified) | inactive: -13.5% | –
59 | Cc1cc(-c2cccc3ccccc23)c(C)cn1.O=[N+]([O-])c1cc([N+](=O)[O-])c(O)c([N+](=O)[O-])c1 | inactive: -21.8% | –
60 | CCOC(=O)c1ccc(NP(C)(=O)Oc2ccc(Cl)cc2)cc1 (stereo unspecified) | inactive: 17.7% | –
61 | CP(=O)(OC12CC3CC(CC(C3)C1)C2)OC12CC3CC(CC(C3)C1)C2 | inactive: -15.2% | –
62 | Nc1ccc2c(ccc3cccnc32)n1.O=[N+]([O-])c1cc([N+](=O)[O-])c(O)c([N+](=O)[O-])c1 | inactive: 19.6% | –
63 | COc1ccccc1OP(C)(=O)Nc1c(C)n(C)n(-c2ccccc2)c1=O (stereo unspecified) | inactive: 2.04% | –
64 | O=C(OCCCN1CCCC1)C(O)(c1ccccc1)C1CCCCC1 (stereo unspecified) | inactive: 4.54% | –
65 | CP(=O)(Oc1ccccc1)N1CCOC1=O (stereo unspecified) | inactive: 6.55% | –
66 | CCc1ccc(OP(C)(=O)Nc2cccnc2)cc1 (stereo unspecified) | inactive: -15.3% | –

Row | Compound | growth rescue (activation) | Potency
67 | CCN(CC)CC(O)COC(=O)C(O)(c1ccccc1)C1CCCCC1 (stereo unspecified) | inactive: -5.55% | –
68 | COc1ccc(OP(C)(=O)Nc2ccc(Br)cc2)cc1 (stereo unspecified) | inactive: -0.601% | –
69 | CN(C)C(=O)c1c([N+](=O)[O-])cc([N+](=O)[O-])cc1[N+](=O)[O-] | inactive: 5.42% | –
70 | COc1ccccc1OP(C)(=O)Nc1ccccc1Br (stereo unspecified) | inactive: -1.2% | –
71 | CC(C)(C)c1ccc(OP(C)(=O)O)cc1 | inactive: -6.73% | –
72 | CP(=O)(Nc1ccc(Cl)cc1)Oc1ccc(F)cc1 (stereo unspecified) | inactive: -10.7% | –
73 | COc1ccc(OP(C)(=O)Nc2ccccn2)cc1 (stereo unspecified) | inactive: -17.8% | –
74 | CN(C)CCOC(=O)C(O)(c1ccccc1)C1CCCC1 (stereo unspecified) | inactive: -12.9% | –
75 | COc1ccccc1OP(C)(=O)Nc1ccc(Br)cc1 (stereo unspecified) | inactive: -0.194% | –
76 | CP(=O)(Nc1ccccn1)Oc1ccccc1 (stereo unspecified) | inactive: -6.42% | –
77 | COc1ccccc1OP(C)(=O)Nc1ccc(C)cc1C (stereo unspecified) | inactive: 19.3% | –
78 | CCc1ccc(OP(C)(=O)O)cc1 | inactive: -9.03% | –
79 | Cc1c(NP(C)(=O)Oc2ccc(C(C)C)cc2)c(=O)n(-c2ccccc2)n1C (stereo unspecified) | inactive: 3.76% | –
80 | O=[N+]([O-])c1cc([N+](=O)[O-])c(Nc2ccccn2)c([N+](=O)[O-])c1 | – | active: 12.6 µM
81 | COc1ccccc1OP(C)(=O)Nc1ccc(C)c(C)c1 (stereo unspecified) | inactive: -9.92% | –
82 | COc1ccc(OP(C)(=O)Nc2ccccc2Br)cc1 (stereo unspecified) | inactive: 10.3% | –
83 | Cc1cc(C)cc(OP(C)(=O)Nc2cccc(C(F)(F)F)c2)c1 (stereo unspecified) | inactive: -24.6% | –
84 | CP(=O)(Nc1ccc(Cl)cc1Cl)Oc1ccccc1 (stereo unspecified) | inactive: 17.7% | –
85 | CCCCCCCCCCCCCCCC1C[N+](C)(C)CCOP(C)(=O)O1 (stereo unspecified) | inactive: -48.6% | –
86 | CP(=O)(OCCOc1ccccc1)OCCOc1ccccc1 | inactive: 17.4% | –
